Sequences of proteins named here, by UniProt entry; tags and fusion partners are left off.
UniProt P49355, whole entry: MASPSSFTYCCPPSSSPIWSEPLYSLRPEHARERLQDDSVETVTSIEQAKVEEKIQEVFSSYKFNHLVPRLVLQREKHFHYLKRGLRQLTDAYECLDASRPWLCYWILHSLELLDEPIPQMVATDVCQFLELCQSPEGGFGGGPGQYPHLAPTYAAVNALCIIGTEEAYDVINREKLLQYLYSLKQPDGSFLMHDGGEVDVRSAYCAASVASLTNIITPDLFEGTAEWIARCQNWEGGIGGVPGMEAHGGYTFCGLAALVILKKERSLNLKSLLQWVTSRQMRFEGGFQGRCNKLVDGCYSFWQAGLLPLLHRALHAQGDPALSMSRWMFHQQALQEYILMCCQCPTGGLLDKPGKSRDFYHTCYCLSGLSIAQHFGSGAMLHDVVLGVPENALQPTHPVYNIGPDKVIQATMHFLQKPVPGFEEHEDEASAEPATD

In patent EP0461869A2, “Chemotherapeutic agents” (MERCK & CO. INC., priority 1990, dated 1991):

Molecular target: Farnesyl-protein transferase from bovine brain (partially purified enzyme preparation) (Bos taurus, UniProt P29702+P49355)
Assay: Competition of Ras farnesylation by polyisoprenoids and peptides (Hepes-buffered assay, immunoprecipitation and nitrocellulose filtration)
Format: biochemical
Details: [Leu68]RAS1(term.)CVLS at 1 µM, 0.5 µM [3H]FPP, 10 min at 24° C; average of 2-5 determinations; >> = no competition at the highest concentration tested

IC50: > 100 µM
Structure (SMILES): CC(C)C[C@H](NC(=O)[C@@H](NC(=O)[C@@H](N)CO)C(C)C)C(=O)N[C@@H](CO)C(=O)O
